Source: patent publication US12414968B2, “Compositions comprising bacterially derived minicells and methods of using the same” (EnGeneIC Molecular Delivery Pty Ltd, priority 2018, dated 2025)

Tested on: Adreno-cortical cancer cell lines ACC01 and ACC07
Assay: MTS cell proliferation assay, ACC01 and ACC07
Settings: 72 hrs, lines derived from Stage IV patients

O=C1[O][Pt]2([NH][C@@H]3CCCC[C@H]3[NH]2)[O]C1=O [oxaliplatin]
cytotoxic effect / resistance of the cell lines: highly resistant
